Key:
[1] = system: Lys(Dnp)-ATNATX4X3PRIVGG-Lys(Abz), X4 = Y, X3 = I
[2] = system: Lys(Dnp)-ATNATQVPRIVGG-Lys(Abz)
[3] = system: Lys(Dnp)-ATNATX4X3PRIVGG-Lys(Abz), X4 = N, X3 = H
[4] = system: Lys(Dnp)-ATNATDSPRIVGG-Lys(Abz)
[5] = system: Lys(Dnp)-ATNATATPRIVGG-Lys(Abz)
[6] = system: Lys(Dnp)-ATNATSMPRIVGG-Lys(Abz)
[7] = system: Lys(Dnp)-ATNATMRPRIVGG-Lys(Abz)
[8] = system: Lys(Dnp)-ATNATPEPRIVGG-Lys(Abz)
[9] = system: Lys(Dnp)-ATNATX4X3PRIVGG-Lys(Abz), X4 = H, X3 = S
[10] = system: Lys(Dnp)-ATNATX4X3PRIVGG-Lys(Abz), X4 = G, X3 = M
[11] = system: Lys(Dnp)-ATNATMHPRIVGG-Lys(Abz)
[12] = system: Lys(Dnp)-ATNATTVPRIVGG-Lys(Abz)
[13] = system: Lys(Dnp)-ATNATX4X3PRIVGG-Lys(Abz), X4 = S, X3 = P
[14] = system: Lys(Dnp)-ATNATX4X3PRIVGG-Lys(Abz), X4 = Y, X3 = E
[15] = system: Lys(Dnp)-ATNATNMPRIVGG-Lys(Abz)
[16] = system: Lys(Dnp)-ATNATX4X3PRIVGG-Lys(Abz), X4 = K, X3 = F
[17] = system: Lys(Dnp)-ATNATX4X3PRIVGG-Lys(Abz), X4 = K, X3 = D
[18] = system: Lys(Dnp)-ATNATSYPRIVGG-Lys(Abz)

Human plasma purified α-thrombin gave an FIIa kcat/KM [1] of 2100 M⁻¹ s⁻¹, a Specificity Ratio (FIIa/FXa) [1] of 31 and a kcat/KM [2] of 5400 M⁻¹ s⁻¹. For the same substance, the FIIa kcat/KM [3] was 660 M⁻¹ s⁻¹, the Specificity Ratio (FIIa/FXa) [3] was 43 and the FIIa kcat/KM [4] was 15 M⁻¹ s⁻¹. For the same substance, the Functional Selectivity (Specificity*FIIa kcat/KM) [4] was 49, the Specificity Ratio (FIIa/FXa) [4] was 3 and the kcat/KM [4] was 15 M⁻¹ s⁻¹. The FIIa kcat/KM [5] was 16000 M⁻¹ s⁻¹, the Functional Selectivity (Specificity*FIIa kcat/KM) [5] was 790000 and the kcat/KM [5] was 16000 M⁻¹ s⁻¹. For the same substance, the kcat/KM [6] was 960 M⁻¹ s⁻¹, the FIIa kcat/KM [7] was 35000 M⁻¹ s⁻¹ and the Functional Selectivity (Specificity*FIIa kcat/KM) [7] was 2.4e+06. For the same substance, the kcat/KM [7] was 35000 M⁻¹ s⁻¹, the kcat/KM [8] was 7500 M⁻¹ s⁻¹ and the FIIa kcat/KM [9] was 1300 M⁻¹ s⁻¹. It also gave a Specificity Ratio (FIIa/FXa) [9] of 21, an FIIa kcat/KM [10] of 1200 M⁻¹ s⁻¹ and a Specificity Ratio (FIIa/FXa) [10] of 23. It also gave an FIIa kcat/KM [11] of 18000 M⁻¹ s⁻¹, a Functional Selectivity (Specificity*FIIa kcat/KM) [11] of 1.1e+06 and a kcat/KM [11] of 18000 M⁻¹ s⁻¹. For the same substance, the kcat/KM [12] was 980 M⁻¹ s⁻¹, the FIIa kcat/KM [13] was 450 M⁻¹ s⁻¹ and the Specificity Ratio (FIIa/FXa) [13] was 36. For the same substance, the FIIa kcat/KM [14] was 1700 M⁻¹ s⁻¹, the Specificity Ratio (FIIa/FXa) [14] was 31 and the kcat/KM [15] was 720 M⁻¹ s⁻¹. For the same substance, the FIIa kcat/KM [16] was 750 M⁻¹ s⁻¹, the Specificity Ratio (FIIa/FXa) [16] was 22 and the FIIa kcat/KM [17] was 1600 M⁻¹ s⁻¹. For the same substance, the Specificity Ratio (FIIa/FXa) [17] was 36, the FIIa kcat/KM [18] was 1100 M⁻¹ s⁻¹ and the Specificity Ratio (FIIa/FXa) [18] was 82. The kcat/KM [18] was 1100 M⁻¹ s⁻¹.
